Measured values taken from ChEMBL document CHEMBL4828746, “Design, synthesis and evaluation of heteroaryldihydropyrimidine analogues bearing spiro ring as hepatitis B virus capsid protein inhibitors” (Eur J Med Chem, 2021).

Experiments:
[1] = Cytotoxicity against human HepDES19 cells assessed as reduction in cell viability measured after 3 days by MTS assay; type: ADME, cell-based; conditions: hepdes19, 72 h, time 3 day
[2] = Selectivity index, ratio of CC50 for human HepDES19 cells to EC50 for inhibition of capsid protein-mediated antiviral activity against HBV infected in human HepDES19 cells assessed as inhibition of DNA replication; type: toxicity, cell-based; conditions: read-out: Ratio CC50/EC50
Procedure, shortened: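 SI = mean CC50 / mean EC50, each from three independent 9-point assays. EC50 by strand-preferential qPCR of HBV DNA after 3 days of compound exposure in induced HepDES19 cells.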

CCOC(=O)C1=C(CN2CCC3(CCN(C(=O)OC(C)(C)C)C3)C2)NC(c2nccs2)=NC1c1ccc(F)cc1Br (stereo unspecified)
CC50 [1]: > 100 µM
selectivity ratio [2]: > 20.7

CCOC(=O)C1=C(CN2CCC3(CC2)OCCO3)NC(c2nccs2)=NC1c1ccc(F)cc1Br (stereo unspecified)
CC50 [1]: > 87 µM
selectivity ratio [2]: > 435

CCOC(=O)C1=C(CN2CCC3(CC(=O)N(Cc4ccccc4)C3=O)C2)NC(c2nccs2)=NC1c1ccc(F)cc1Br (stereo unspecified)
CC50 [1]: > 88.4 µM
selectivity ratio [2]: > 42.1

CCOC(=O)C1=C(CN2CCC3(CCNC3=O)CC2)NC(c2nccs2)=NC1c1ccc(F)cc1Br (stereo unspecified)
CC50 [1]: 58.4 µM
selectivity ratio [2]: 17

CCOC(=O)C1=C(CN2CCC3(CCN(C(=O)OC(C)(C)C)C3)C2=O)NC(c2nccs2)=NC1c1ccc(F)cc1Br (stereo unspecified)
CC50 [1]: > 83.4 µM
selectivity ratio [2]: > 16.1

CCOC(=O)C1=C(CN2CCC3(CC2)CN(C(=O)OC(C)(C)C)C3)NC(c2nccs2)=NC1c1ccc(F)cc1Br (stereo unspecified)
CC50 [1]: > 100 µM
selectivity ratio [2]: > 9.65

CCOC(=O)C1=C(CN2CC3(CCN(C(=O)OC(C)(C)C)C3)CC2=O)NC(c2nccs2)=NC1c1ccc(F)cc1Br (stereo unspecified)
CC50 [1]: 22.3 µM
selectivity ratio [2]: 2.23

CCOC(=O)C1=C(CN2CCC3(CC2)CNC3=O)NC(c2nccs2)=NC1c1ccc(F)cc1Br (stereo unspecified)
CC50 [1]: > 78.8 µM
selectivity ratio [2]: > 67.4

CCOC(=O)C1=C(CN2CCC3(CC2)CC(=O)NC3=O)NC(c2nccs2)=NC1c1ccc(F)cc1Br (stereo unspecified)
CC50 [1]: 48.8 µM
selectivity ratio [2]: 71.3

CCOC(=O)C1=C(CN2CCC3(CNC(=O)C3)C2)NC(c2nccs2)=NC1c1ccc(F)cc1Br (stereo unspecified)
CC50 [1]: 69.3 µM
selectivity ratio [2]: 26.6

CCOC(=O)C1=C(CN2CCC3(CC2)CNC(=O)C3)NC(c2nccs2)=NC1c1ccc(F)cc1Br (stereo unspecified)
CC50 [1]: > 83.4 µM
selectivity ratio [2]: > 21.9

CCOC(=O)C1=C(CN2CCC3(C2)CN(C(=O)OC(C)(C)C)C3)NC(c2nccs2)=NC1c1ccc(F)cc1Br (stereo unspecified)
CC50 [1]: > 100 µM
selectivity ratio [2]: > 11.3

CCOC(=O)C1=C(CN2CC3(CC2=O)CN(C(=O)OC(C)(C)C)C3)NC(c2nccs2)=NC1c1ccc(F)cc1Br (stereo unspecified)
CC50 [1]: 21.1 µM
selectivity ratio [2]: 1.59
